pIC50: −log10 of the molar value. “And” between values parts separate entries of the source, which are not always exact repeats. Identical values can stand only once.
Assays:
[1] = biological target: human MMP-1 (amino acids 100-262) (Homo sapiens, UniProt P03956); assay: MMP dose response assay for determining IC50, MMP-1; conditions: read-out: MMP-1; recombinant catalytic domain, fluorescent-quench substrate 100 nM
[2] = biological target: human MMP-2 (amino acids 1-660) (Homo sapiens, UniProt P08253); assay: MMP dose response assay for determining IC50, MMP-2; assay type: biochemical; conditions: read-out: MMP-2; recombinant enzyme, fluorescent-quench substrate 100 nM

Amino acid sequences for entries named in this document (tags omitted). Residues count along the entry.
UniProt P03956, 100-262 limits assumed: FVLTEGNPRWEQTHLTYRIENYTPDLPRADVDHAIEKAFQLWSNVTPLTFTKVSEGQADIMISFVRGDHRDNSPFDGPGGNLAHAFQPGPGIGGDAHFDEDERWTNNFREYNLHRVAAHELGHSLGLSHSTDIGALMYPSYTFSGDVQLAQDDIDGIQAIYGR
UniProt P08253, 110-660 limits assumed: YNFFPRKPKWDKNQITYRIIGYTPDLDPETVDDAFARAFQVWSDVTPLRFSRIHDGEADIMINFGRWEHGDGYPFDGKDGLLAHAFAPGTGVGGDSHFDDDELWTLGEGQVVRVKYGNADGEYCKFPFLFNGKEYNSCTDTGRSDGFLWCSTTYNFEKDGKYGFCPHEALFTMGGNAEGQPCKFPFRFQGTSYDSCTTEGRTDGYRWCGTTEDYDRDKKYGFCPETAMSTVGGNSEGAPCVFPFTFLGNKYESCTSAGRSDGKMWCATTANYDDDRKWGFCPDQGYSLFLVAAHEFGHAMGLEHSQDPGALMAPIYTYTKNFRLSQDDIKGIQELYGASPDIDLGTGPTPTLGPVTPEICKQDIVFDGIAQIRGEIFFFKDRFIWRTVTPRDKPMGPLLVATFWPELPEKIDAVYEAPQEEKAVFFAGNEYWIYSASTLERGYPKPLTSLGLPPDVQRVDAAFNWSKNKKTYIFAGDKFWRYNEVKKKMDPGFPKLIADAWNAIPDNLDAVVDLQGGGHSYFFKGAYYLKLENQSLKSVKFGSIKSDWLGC

- pIC50 [1]: < 5.00
- pIC50 [2]: 8.24 and 8.29
SMILES: CNC(=O)C1CCN([C@@H](CN(c2ccc(Oc3ccc(C(F)(F)F)cc3)cc2)S(C)(=O)=O)C(=O)NO)CC1
